Source: BindingDB's records for doi:10.1074/jbc.271.42.26315 (Bayer, 1996)
pKi: −log10 of the molar value.

Target: T1, Neuropeptide Y receptor type 5 (Homo sapiens, UniProt Q15761)
T1 sequence (Q15761 whole entry): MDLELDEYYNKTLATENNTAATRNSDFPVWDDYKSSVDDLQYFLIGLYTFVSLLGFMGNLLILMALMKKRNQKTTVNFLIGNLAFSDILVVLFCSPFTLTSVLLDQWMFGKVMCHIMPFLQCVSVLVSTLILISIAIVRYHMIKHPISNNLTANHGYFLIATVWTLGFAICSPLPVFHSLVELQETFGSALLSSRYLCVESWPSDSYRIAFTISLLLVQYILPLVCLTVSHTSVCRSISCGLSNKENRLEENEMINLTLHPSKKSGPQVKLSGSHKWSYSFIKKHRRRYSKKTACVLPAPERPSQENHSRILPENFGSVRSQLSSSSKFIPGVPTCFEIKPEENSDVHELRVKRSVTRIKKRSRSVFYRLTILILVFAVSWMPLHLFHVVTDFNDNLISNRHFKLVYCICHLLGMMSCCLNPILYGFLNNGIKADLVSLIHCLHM

Compound: CC[C@H](C)[C@H](NC(=O)[C@@H]1CCCN1C(=O)[C@@H](N)Cc1ccc(O)cc1)C(=O)N[C@@H](CCCCN)C(=O)N1CCC[C@H]1C(=O)N[C@@H](CCC(=O)O)C(=O)N[C@@H](C)C(=O)N1CCC[C@H]1C(=O)NCC(=O)N[C@@H](CCC(=O)O)C(=O)N[C@@H](CC(=O)O)C(=O)N[C@@H](C)C(=O)N[C@@H](CO)C(=O)N1CCC[C@H]1C(=O)N[C@@H](CCC(=O)O)C(=O)N[C@@H](CCC(=O)O)C(=O)N[C@@H](CC(C)C)C(=O)N[C@@H](CC(N)=O)C(=O)N[C@@H](CCCN=C(N)N)C(=O)N[C@@H](Cc1ccc(O)cc1)C(=O)N[C@@H](Cc1ccc(O)cc1)C(=O)N[C@@H](C)C(=O)N[C@@H](CO)C(=O)N[C@@H](CC(C)C)C(=O)N[C@@H](CCCN=C(N)N)C(=O)N[C@@H](Cc1c[nH]cn1)C(=O)N[C@@H](Cc1ccc(O)cc1)C(=O)N[C@@H](CC(C)C)C(=O)N[C@@H](CC(N)=O)C(=O)N[C@@H](CC(C)C)C(=O)N[C@@H](CC(C)C)C(=O)N[C@H](C(=O)N[C@@H](CCCN=C(N)N)C(=O)N1CCC[C@H]1C(=O)N[C@@H](CCCN=C(N)N)C(=O)N[C@@H](Cc1ccc(O)cc1)C(N)=O)[C@@H](C)O [PYY,[leu31,Pro34], human]
- pKi: 8.77
